This passage reports inhibition results from PubChem BioAssay AID493012 (Sanford-Burnham Center for Chemical Genomics, 2011).

Chains of the proteins cited; added tags and fusions are not shown.
UniProt Q9HC16, whole entry: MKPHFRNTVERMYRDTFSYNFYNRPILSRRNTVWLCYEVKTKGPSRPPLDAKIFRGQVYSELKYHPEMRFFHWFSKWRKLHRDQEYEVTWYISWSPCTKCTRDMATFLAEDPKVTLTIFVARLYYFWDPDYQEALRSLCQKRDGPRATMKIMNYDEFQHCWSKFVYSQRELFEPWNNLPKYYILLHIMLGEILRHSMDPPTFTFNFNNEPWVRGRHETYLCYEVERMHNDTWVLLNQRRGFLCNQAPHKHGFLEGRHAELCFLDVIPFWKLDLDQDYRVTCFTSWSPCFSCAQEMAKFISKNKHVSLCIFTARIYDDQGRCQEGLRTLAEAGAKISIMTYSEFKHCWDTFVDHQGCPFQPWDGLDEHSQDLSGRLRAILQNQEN

What is called inhibition is the change of the read-out against control, counted positive when it falls.

Only a part is listed here, and it is no random draw. Activity calls are given as the source filed them.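 How the source made its calls: active means inhibition of at least 40% at 20 µM, with no more than 30% in the related APOBEC3A deaminase screen; inactive means the rest.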

This assay concerns the target DNA dC->dU-editing enzyme APOBEC-3G (Homo sapiens) (UniProt Q9HC16). The experiment in a line: APOBEC3G DNA deaminase inhibitors, primary screen, biochemical, fluorescence, single-stranded DNA substrate, uHTS (AID 493012).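 Further: plate controls were DMSO wells with A3G for no effect and wells lacking A3G enzyme for full effect.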 To be noted: recombinant A3G, ssDNA deamination FAM/TAMRA fluorescence; at 20 µM; stronger effect = higher value.
Regarding `CCCCCOc1ccc(NP(C)(=O)Oc2ccc(Cl)cc2Cl)cc1` (configuration not stated), the inhibition is inactive: -2.98%.
For the compound `CP(=O)(Nc1ccccc1)Oc1ccc(F)cc1` (configuration not stated), the inhibition is inactive: -5.61%.
As for `CCN(CC)CCCOC(=O)C(O)(c1ccccc1)C1CCCCC1` (configuration not stated), the inhibition is inactive: -1.78%.
Turning to `COc1ccc(OP(C)(=O)Nc2ccc(SC(F)(F)F)cc2)cc1` (configuration not stated), the inhibition was inactive: -7.68%.
Then `CCOC(=O)c1ccc(NP(C)(=O)Oc2ccc(F)cc2)cc1` (configuration not stated), with inactive: -2.21%.
`CP(=O)(Nc1ccc(Cl)cc1Cl)Oc1ccccc1` (configuration not stated): the inhibition is inactive: -2.66%.
On to `CP(=O)(OCCOc1ccccc1)OCCOc1ccccc1`, for which the inhibition is inactive: -2.1%.
Turning to `Cc1nc2ccc3ccccc3c2o1.O=[N+]([O-])c1cc([N+](=O)[O-])c(O)c([N+](=O)[O-])c1`, the inhibition is inactive: -1.75%.
Turning to `COc1ccc(OP(C)(=O)Nc2ccccc2Br)cc1` (configuration not stated), the inhibition was inactive: -3.37%.
For the compound `COc1ccccc1OP(C)(=O)Nc1ccc(C)c(C)c1` (configuration not stated), the inhibition was inactive: -4.67%.
Turning to `Cc1cc(C)cc(OP(C)(=O)Nc2cccc(C(F)(F)F)c2)c1` (configuration not stated), the inhibition was inactive: -6.61%.
The figure for `CCc1ccc(OP(C)(=O)O)cc1` is inactive: -4.92%.
Then `COc1ccccc1OP(C)(=O)Nc1ccc(C)cc1C` (configuration not stated), with inactive: -0.043%.
Take `CP(=O)(Nc1ccccn1)Oc1ccccc1` (configuration not stated): the inhibition was inactive: -1.55%.
As to `Cc1c(NP(C)(=O)Oc2ccc(C(C)C)cc2)c(=O)n(-c2ccccc2)n1C` (configuration not stated), the inhibition is inactive: -3.5%.
For the compound `O=[N+]([O-])c1cc([N+](=O)[O-])c(Nc2ccccn2)c([N+](=O)[O-])c1`, the inhibition was inactive: -2.97%.
Regarding `CN(C)CCOC(=O)C(O)(c1ccccc1)C1CCCC1` (configuration not stated), the inhibition was inactive: 2%.
For the compound `COc1ccc(OP(C)(=O)Nc2ccccn2)cc1` (configuration not stated), the inhibition is inactive: -9.08%.
Then `COc1ccccc1OP(C)(=O)Nc1ccc(Br)cc1` (configuration not stated), with inactive: -5.81%; and `CN(C)C(=O)c1c([N+](=O)[O-])cc([N+](=O)[O-])cc1[N+](=O)[O-]`, with inactive: -5.02%.
In the case of `CP(=O)(Nc1ccc(Cl)cc1)Oc1ccc(F)cc1` (configuration not stated), the inhibition was inactive: 5.4%.
As to `COc1ccccc1OP(C)(=O)Nc1ccccc1Br` (configuration not stated), the inhibition was inactive: -6.46%.
In the case of `CC(C)(C)c1ccc(OP(C)(=O)O)cc1`, the inhibition was inactive: -0.755%.
The figure for `CCc1ccc(OP(C)(=O)Nc2cccnc2)cc1` (configuration not stated) is inactive: -2.85%; for `CP(=O)(Oc1ccccc1)N1CCOC1=O` (configuration not stated) it is inactive: -4.82%.
`O=C(OCCCN1CCCC1)C(O)(c1ccccc1)C1CCCCC1` (configuration not stated): the inhibition is inactive: -4.59%.
Regarding `COc1ccccc1OP(C)(=O)Nc1c(C)n(C)n(-c2ccccc2)c1=O` (configuration not stated), the inhibition was inactive: 1.15%.
For the compound `COc1ccc(OP(C)(=O)Nc2ccc(Br)cc2)cc1` (configuration not stated), the inhibition was inactive: -4.99%.
As for `CCN(CC)CC(O)COC(=O)C(O)(c1ccccc1)C1CCCCC1` (configuration not stated), the inhibition was inactive: 0.052%.
As for `CP(=O)(OC12CC3CC(CC(C3)C1)C2)OC12CC3CC(CC(C3)C1)C2`, the inhibition was inactive: 0.287%.
With `CCOC(=O)c1ccc(NP(C)(=O)Oc2ccc(Cl)cc2)cc1` (configuration not stated), the inhibition is inactive: -0.77%.
With `Nc1ccc2c(ccc3cccnc32)n1.O=[N+]([O-])c1cc([N+](=O)[O-])c(O)c([N+](=O)[O-])c1`, the inhibition was inactive: 3.43%.
